# Earlier results in patent EP1366765A1, “Use of matrix metalloproteinase inhibitors for treating neurological disorders and promoting wound healing” (priority 1996, dated 1998).
# System: MMP-2
# Settings: cited from earlier work
compound,measurement,value
O=C(C[C@@H](CCCc1ccccc1)C(=O)N[C@@H](CC1CCCCC1)C(=O)NCCc1ccccc1)NO [Compound 17],IC50,0.062 nM
